ChEMBL document CHEMBL4038319, “Development of a Potent Inhibitor of the Plasmodium Proteasome with Reduced Mammalian Toxicity” (J Med Chem, 2017)

By UniProt entry, the sequences of proteins in these tests, tags left out. Where a name states a change or a piece, a line headed by the entry shows the natural chain unless it says otherwise.
UniProt P28074: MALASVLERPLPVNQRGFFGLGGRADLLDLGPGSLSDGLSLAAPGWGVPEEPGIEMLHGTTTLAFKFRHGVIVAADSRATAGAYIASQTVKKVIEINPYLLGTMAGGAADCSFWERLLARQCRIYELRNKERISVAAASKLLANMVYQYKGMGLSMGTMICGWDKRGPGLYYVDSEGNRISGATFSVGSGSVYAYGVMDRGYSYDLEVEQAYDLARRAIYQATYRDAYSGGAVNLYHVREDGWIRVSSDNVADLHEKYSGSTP

How the values were obtained:
[1] = molecular target: 20S proteasome beta5 subunit (Proteasome Macropain subunit MB1) (Homo sapiens, UniProt P28074); assay: Irreversible inhibition of human 20S proteasome beta5 subunit using suc-LLVY-AMC as substrate after 4 hrs at 30 mins time interval by fluorescence assay; details: probe suc-LLVY-AMC
[2] = molecular target: constitutive 20S proteasome beta5 subunit (Proteasome Macropain subunit MB1) (Homo sapiens, UniProt P28074); assay: Ratio of kinact to Ki for human constitutive 20S proteasome beta5 subunit; type: ADME
[3] = system: Plasmodium falciparum

Row | SMILES | kinact at 4 h [1] | kinact/KI [2] | Kinact [3]
1 | CCCCCC(=O)N[C@H](C(=O)N[C@@H](CCCC)C(=O)N[C@@H](CC(C)C)C(=O)[C@@]1(C)CO1)C(C)C | 0.00562 s⁻¹ | 1500 M⁻¹ s⁻¹ | 1.76 ×10⁻³ /s
2 | CCCCCC(=O)N[C@@H](C(=O)N[C@@H](CCCC)C(=O)N[C@@H](CC(C)C)C(=O)[C@@]1(C)CO1)C(C)C | 0.00062 s⁻¹ | 15.8 M⁻¹ s⁻¹ | 5.88 ×10⁻⁵ /s
